# Results reported in PubChem BioAssay AID743279 (National Center for Advancing Translational Sciences (NCATS), 2014).
# This is a selection; strong and weak results do not stand in their true shares. Results filed as inconclusive are left out. Calls of active or inactive are those of the source. No stated cut-off is given here; in the data, active means activity change below about -50%; inconclusive means mostly about -30% to -49%; inactive means weaker than that.
# Assay: qHTS for Inhibitors of Inflammasome Signaling: IL-1-beta AlphaLISA Primary Screen
# Details: THP-1 LPS/ATP IL-1B secretion, 16 h, at 57.5 µM, active compounds read low
# Text: Inflammasomes are a set of intracellular multi-protein complexes that enable autocatalytic activation of inflammatory caspases and drive the innate immune response to counter harmful agents. […] A qHTS assay, based on AlphaLISA technology, was developed to screen the Molecular Libraries Small Molecule Repository (MLSMR) to look for novel inflammasome inhibitors. The assay detects IL-1B using AlphaLISA anti-IL-1B acceptor and donor beads. A decreased emission signal, indicating reduced IL-1B secretion, is the desired outcome for this assay. NIH Chemical Genomics Center [NCGC] NIH Molecular Libraries Probe Centers Network [MLPCN] MLPCN Grant: MH095513 Assay Provider: Shyam Biswal Ph.D., Johns Hopkins University Immunity. 2012 Jul 27;37(1):85-95. PMID: 22819042 [2] Curr Pharm Des. 2012;18(16):2320-8. PMID: 22390695
# Three microliters containing 3000 THP-1 cells were dispensed into the wells of solid, white, tissue culture treated Greiner 1,536-well plates. Library compounds and positive control, Glyburide, were pin-transferred (23 nL) by a Kalypsys pin-tool equipped with a 1,536-pin array, resulting in final compound concentration ranges of 2.5 nM to 57.5 uM. After 1 hr of cell culture incubation (37 °C, 5% CO2), 1 microL of 1 microg/mL lipopolysaccharide (250 ng/mL, final) and 5 mM ATP (1.25 mM, final) were added to stimulate the cells. After 16 hr of cell culture incubation with the compounds, 1.5 uL of anti-IL-1B acceptor beads (6 ug/mL, final) and biotinylated antibody (0.6 nM, final) were added to the plate, followed by a 1 hr incubation at ambient temperature. To detect the secreted IL-1B, 1.5 uL of AlphaLISA SA-Donor beads (24 ug/mL, final) were added, followed by 30 min of incubation in the dark at ambient temperature. The AlphaLISA signal was read by a PerkinElmer EnVision plate reader with an ultrasensitive luminescence detector and 1536 Plate HTS AlphaScreen aperture (excitation of 680nm and emission of 615nm).
# On the % scale 0 is the no-effect control and ±100 the full control effect.
row,Compound,activity change
1,Cc1ccc(OP(=O)(Nc2ccc([N+](=O)[O-])cn2)Oc2ccc(C)cc2)cc1,inactive: 9.87%
2,[N-]=[N+]=NC1CCCCC1NC(=O)c1cc([N+](=O)[O-])cc([N+](=O)[O-])c1 (stereo not given),inactive: 23.1%
3,Cc1ccc2nc3c(c(C)c2c1)CC(C(Cl)Cl)S3 (stereo not given),inactive: -5.35%
4,ClCCSc1nnc(-c2cccnc2)o1,inactive: -20.8%
5,CC(C)c1ccc(OP(=O)(Nc2ccccn2)Oc2ccccc2F)cc1 (stereo not given),inactive: 28.6%
6,COC(=O)C1(C)COP(=O)(N2CCCCCC2)OC1 (stereo not given),inactive: 6.21%
7,CCN(CC)C(=S)SC(NC=O)C(Cl)(Cl)Cl (stereo not given),inactive: 15.2%
8,O=C(OC1CN2CCC1CC2)c1cccc2[nH]cnc12 (stereo not given),inactive: -15%
9,CC(C)NC(=O)NP(=O)(Oc1ccccc1)Oc1ccccc1,inactive: -6.27%
10,O=[N+]([O-])c1cc([N+](=O)[O-])c(-c2ccn[nH]2)s1,active: -69.1%
11,Cc1c2c(nc3ccccc13)SC(C(Cl)Cl)C2 (stereo not given),inactive: 6.01%
12,O=C(OC1CN2CCC1CC2)C12CC3CC(CC(C3)C1)C2 (stereo not given),inactive: -14.2%
13,Cc1cc(=O)[nH]c(N[N+](=O)[O-])n1,inactive: -12.5%
14,O=P1(N(CCCl)CCCl)OCCCN1CCCl (stereo not given),inactive: 8.11%
15,O=P1(N(CCCl)CCCl)Nc2ccccc2N1,inactive: 13.9%
16,COc1ccc2nc(NP(=O)(c3ccccc3)c3ccccc3)sc2c1,inactive: -12.6%
17,COc1cc(I)ccc1[As](=O)(O)O,active: -86.4%
18,O=[N+]([O-])c1cc(Oc2ccc([N+](=O)[O-])cc2C(F)(F)F)cc([N+](=O)[O-])c1,inactive: -29.6%
19,COc1ccc(N/C(=N/P(=O)(N2CCOCC2)N2CCOCC2)N2CCOCC2)cc1,inactive: 12%
20,O=C(OC1CN2CCC1CC2)c1ccc(Cl)cc1 (stereo not given),inactive: -8.39%
21,O=[As](O)(O)c1cccnc1,inactive: -12%
22,CS(=O)(=O)c1ccc(Cl)c(NC(=O)COC(=O)C(O)(c2ccccc2)c2ccccc2)c1,inactive: 0%

row,Compound,activity change
1,O=[As](O)(c1cccc(O)c1)c1cccc(O)c1,inactive: 10.2%
2,Cc1cccc(OCC(=O)OC2CN3CCC2CC3)c1 (stereo not given),inactive: -2.95%
3,Cc1ccc(NCCc2c([N+](=O)[O-])cc([N+](=O)[O-])cc2[N+](=O)[O-])cc1,inactive: -3.66%
4,Nc1cccc2c([As](=O)(O)O)cccc12,inactive: 0%
5,CCCOP(=S)(Nc1nc(N)cc(=O)[nH]1)OCCC,inactive: 0.228%
6,COc1cc(C2NCCC3(OCCO3)C2(C)C)cc(OC)c1OC (stereo not given),inactive: -11.5%
7,CCOP(=O)(Nc1cccc2ccccc12)OCC,inactive: 8.47%
8,CCOP1(=S)c2c(C)nn(CCC#N)c2N=C(c2ccccc2F)N1C (stereo not given),inactive: -3.75%
9,O=P(Nc1nccs1)(c1ccccc1)c1nc2ccccc2s1 (stereo not given),active: -73%
10,O=P(Nc1nccs1)(Oc1ccccc1)Oc1ccccc1,inactive: 3.76%
11,CS(=O)(=O)c1cc([N+](=O)[O-])c2no[n+]([O-])c2c1,inactive: 10.9%
12,O=C(O)COc1ccc([As](=O)(O)O)cc1[N+](=O)[O-],inactive: 14.5%
13,Nc1ccccc1[As](=O)(O)c1ccccc1,inactive: -2.24%
14,NC(=O)Nc1ccc([As](=O)(O)O)cc1,inactive: 13.2%
15,N#CCCN(C(=O)COC(=O)C(O)(c1ccccc1)c1ccccc1)c1ccc(F)cc1,inactive: -3.35%
16,CCOP1(=S)c2c(C)nn(CCC#N)c2N=C(c2ccc(F)cc2)N1C (stereo not given),inactive: -5.94%
17,CN(C(=O)Cc1ccccc1)[C@@H]1CC[C@]2(CCCO2)C[C@H]1N1CCCC1,inactive: -1.61%
18,CN(C)C(=O)c1cc([N+](=O)[O-])cc2c1-c1c(cc([N+](=O)[O-])cc1[N+](=O)[O-])C2=O,active: -96.9%
19,O=[N+]([O-])c1ccc2c(c1)nnn2O,inactive: -3.7%
20,CN(C(=O)Cc1ccc(Cl)c(Cl)c1)[C@H]1CC[C@@]2(CCCO2)C[C@@H]1N1CCCC1,inactive: -6.65%
21,Cc1nn(-c2ccccc2)c2c1P(=O)(N1CCOCC1)N(C)C(c1ccccc1)=N2 (stereo not given),inactive: -3.36%
22,Cc1ccc(C(=O)OC2CN3CCC2CC3)cc1 (stereo not given),inactive: 17.4%

row,Compound,activity change
1,CC1CCC(C(C)C)C(OP(=O)(Nc2ccccn2)c2ccccc2)C1 (stereo not given),active: -89%
2,CN(C)C1(CNC(=O)c2ccc(S(C)(=O)=O)cc2)CCCCC1,inactive: -10.5%
3,O=C(/C=C/c1ccccc1)OC1CN2CCC1CC2 (stereo not given),inactive: -22%
4,CCCC1OP(=O)(Nc2ccccc2)OCC1CC (stereo not given),inactive: 0.218%
5,Cc1ccc(S(=O)(=O)N(CCCN)CCCc2c(C)nc(N)[nH]c2=O)cc1,inactive: -6.75%
6,O=P1(Nc2ncccn2)COc2ccccc2OC1,inactive: 16.2%
7,Nc1cccc([As](=O)(O)c2ccccc2)c1,inactive: 15%
8,NS(=O)(=O)c1cccc(NC(=O)COC(=O)C(O)(c2ccccc2)c2ccccc2)c1,inactive: 20.6%
9,Cc1ccc(OCC(=O)OC2CN3CCC2CC3)cc1 (stereo not given),inactive: 7.09%
10,O=[As](O)(c1cccs1)c1cccs1,inactive: 5.2%
11,CCC1=CC2Cc3nc4ccc(Cl)cc4c(N)c3C(C1)C2 (stereo not given),active: -90%
12,O=P1(Nc2ccccn2)COc2ccccc2OC1,inactive: -9.66%
13,CCOP(=O)(NC(=NC(C)c1ccccc1)NC(C)c1ccccc1)OCC (stereo not given),inactive: -17.6%
14,CN(CCCl)Cc1cc(Cl)c(NC2=NCCN2)c(Cl)c1,inactive: -17.1%
15,CCOP(=O)(Nc1ccc(C)cn1)OCC,inactive: 8.31%
16,Clc1n[nH]nc1-c1nn[nH][15n]1,inactive: 22.6%
17,O=P1(N(CCCl)CCCl)NCCC(C(F)(F)F)O1 (stereo not given),inactive: -27.5%
18,CC(C)(C)C(=O)NC(Sc1ncccn1)C(Cl)(Cl)Cl (stereo not given),inactive: -15.4%
19,COc1ccccc1CNC(=O)COC(=O)C(O)(c1ccccc1)c1ccccc1,inactive: -0.766%
20,CC(C)/C=N\N=C(\N)N[N+](=O)[O-],inactive: -5.28%
21,CC1(CBr)Cn2c(nc3ccccc3c2=O)S1 (stereo not given),inactive: 7.38%
